According to patent publication US20080241211A1, “DEVICE WHICH ENHANCES THE BIOLOGICAL ACTIVITY OF LOCALLY APPLIED GROWTH FACTORS WITH PARTICULAR EMPHASIS ON THOSE USED FOR BONE REPAIR” (University of Southern California, priority 2007, published 2008):

System: Pre-myoblast cell line C2C12
Assay: BMP-2 induced ALP activity in C2C12 cell culture
Assay type: cell-based
Conditions: FIG. 3
Method: DBM activity test: Osteoinductivity of BMP-2 and DBM can be quantitatively analysis by using cell culture method. Pre-myoblast cell line C2C12 was used for test BMP-2 induced ALP activity.
C2C12 was plated in 96-well culture plate with density of 12.5K/well in 10% FBS/DMEM for 5 hours attachment. Medium was changed into 1% testing medium followed by adding different amount of BMP-2 and/or naringin solution. Cells were incubated at 37° C. for another 48 hours. Cell membrane associated ALP activity was tested by standard ALP assay.
C2C12 was plated in 96-well culture plate with density of 12.5K/well in 10% FBS/DMEM for 5 hours attachment. Medium was changed into 1% testing medium. Forty nano-gram of rhBMP-2 in 10 μl was added in every well and 1-1600 nM of naringin was added 10 minutes later. […] The sequence and time interval between the addition of growth factor and enhancer is also critical to their biological effect.
When naringin is added, however, BMP-2 activity is increased four-fold to 0.4. […] Therefore, the combination of naringin and BMP-2 is considered to show “synergistic effect”.
Induction of differentiation by naringin is associated with increased bone morphogenetic protein-2 (BMP-2) production. […] (see FIG. 3).
Naringin dose range in vitro on C2C12: around 12.5 to 2000 nM, lower than most phytoestrogen dose, but within the range of non-productive actions of estrogen derivatives. […]

B1: BMP-2: bone morphogenetic protein-2, osteoinductive agent (protein, UniProt P12643 283-396, looked up)
Bone morphogenetic protein 2: QAKHKQRKRLKSSCKRHPLYVDFSDVGWNDWIVAPPGYHAFYCHGECPFPLADHLNSTNHAIVQTLVNSVNSKIPKACCVPTELSAISMLYLDENEKVVLKNYQDMVVEGCGCR
- activity in the alkaline phosphate (ALP) assay (BMP-2 in the absence of naringin): 0.1
- effect of BMP-2 on ALP activity (C2C12, 48 hours): dose dependently increased ALP activity
